Chains of the proteins cited; added tags and fusions are not shown. Lines headed by an entry give the natural chain unless they say otherwise; changes in a name come on top.
UniProt P49146, whole entry: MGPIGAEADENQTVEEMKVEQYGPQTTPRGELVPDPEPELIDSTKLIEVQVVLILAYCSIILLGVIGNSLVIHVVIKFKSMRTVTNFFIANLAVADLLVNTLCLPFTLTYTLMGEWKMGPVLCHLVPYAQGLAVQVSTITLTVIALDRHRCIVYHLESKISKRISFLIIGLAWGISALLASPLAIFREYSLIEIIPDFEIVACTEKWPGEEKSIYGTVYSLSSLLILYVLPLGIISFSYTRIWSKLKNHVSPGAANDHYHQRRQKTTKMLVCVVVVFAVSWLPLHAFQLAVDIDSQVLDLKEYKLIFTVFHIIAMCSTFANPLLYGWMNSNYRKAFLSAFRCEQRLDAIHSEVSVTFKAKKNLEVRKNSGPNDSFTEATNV

According to US6696409 (PRINCE OF WALES MEDICAL RESEARCH INSTITUTE LIMITED POWMR, dated 2004):

Columns and labels:
[1] = biological target: Y2-like receptors in anaesthetised rats (rat); assay: cell-based or functional assay
[2] = biological target: T1, human neuropeptide Y Y2 receptor on SMS-MSN cells (human, UniProt P49146 1-381); assay: competition with 30 pM [125I]NPY on SMS-MSN cells (human Y2), filtration
T1 construct: whole, on cells; also called NPY Y2 receptor; SMS-MSN (Y2)

B1: AcNPY24-36 (peptide, UniProt P01303 52-64, looked up)
peptide: LRHYINLITRQRY
modifications: N-terminal acetyl (Ac); C-terminal amide
notes: range 24-36; Residues 24-36 count on mature NPY, not on the precursor entry
B1 was tested, and the “EC50 of the change in pulse interval (PI %), vagal stimulation in anaesthetised rats” value [1] was 3.98 nmol and the IC50 [2] was 0.5 nM.
